From patent US8354246B2, “Non-MCCJ25-related lariat-peptide inhibitors of bacterial RNA polymerase” (priority 2006, dated 2013) come the findings set out here.

Protein sequences, listed by entry. Tags and fused reporters are not part of them.
UniProt P0A8T7, whole entry: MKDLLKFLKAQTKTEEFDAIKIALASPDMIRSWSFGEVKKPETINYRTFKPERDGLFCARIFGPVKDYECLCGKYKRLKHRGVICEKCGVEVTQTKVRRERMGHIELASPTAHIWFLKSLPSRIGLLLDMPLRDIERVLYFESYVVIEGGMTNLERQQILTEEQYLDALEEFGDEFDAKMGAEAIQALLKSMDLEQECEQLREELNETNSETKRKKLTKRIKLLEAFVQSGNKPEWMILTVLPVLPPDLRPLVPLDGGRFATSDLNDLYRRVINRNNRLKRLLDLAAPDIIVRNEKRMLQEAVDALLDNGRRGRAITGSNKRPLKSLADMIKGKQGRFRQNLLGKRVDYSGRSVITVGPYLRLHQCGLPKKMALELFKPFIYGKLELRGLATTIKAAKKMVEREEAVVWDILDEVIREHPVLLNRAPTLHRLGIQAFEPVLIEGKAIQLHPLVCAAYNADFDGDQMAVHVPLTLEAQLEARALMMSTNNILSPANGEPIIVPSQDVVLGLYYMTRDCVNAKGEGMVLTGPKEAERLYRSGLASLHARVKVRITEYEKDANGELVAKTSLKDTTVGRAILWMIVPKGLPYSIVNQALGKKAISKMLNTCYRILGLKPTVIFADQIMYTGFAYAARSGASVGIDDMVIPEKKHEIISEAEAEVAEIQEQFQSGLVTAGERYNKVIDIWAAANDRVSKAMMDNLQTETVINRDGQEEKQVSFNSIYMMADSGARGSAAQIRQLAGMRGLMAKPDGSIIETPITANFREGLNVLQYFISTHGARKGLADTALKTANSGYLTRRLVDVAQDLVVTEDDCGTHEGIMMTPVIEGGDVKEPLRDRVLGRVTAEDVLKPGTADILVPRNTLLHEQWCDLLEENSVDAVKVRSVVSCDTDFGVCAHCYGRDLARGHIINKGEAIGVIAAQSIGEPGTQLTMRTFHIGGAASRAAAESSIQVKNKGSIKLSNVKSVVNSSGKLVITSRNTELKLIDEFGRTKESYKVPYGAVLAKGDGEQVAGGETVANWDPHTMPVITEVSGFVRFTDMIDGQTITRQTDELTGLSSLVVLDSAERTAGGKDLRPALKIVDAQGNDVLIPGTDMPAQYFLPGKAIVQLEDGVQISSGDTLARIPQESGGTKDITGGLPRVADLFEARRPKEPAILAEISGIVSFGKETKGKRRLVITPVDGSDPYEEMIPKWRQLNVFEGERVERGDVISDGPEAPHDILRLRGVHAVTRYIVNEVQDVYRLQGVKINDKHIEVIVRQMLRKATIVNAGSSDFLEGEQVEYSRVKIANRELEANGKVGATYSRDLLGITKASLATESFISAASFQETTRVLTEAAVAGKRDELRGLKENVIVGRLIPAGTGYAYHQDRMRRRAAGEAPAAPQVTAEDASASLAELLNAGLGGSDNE
UniProt Q8RQE8, whole entry: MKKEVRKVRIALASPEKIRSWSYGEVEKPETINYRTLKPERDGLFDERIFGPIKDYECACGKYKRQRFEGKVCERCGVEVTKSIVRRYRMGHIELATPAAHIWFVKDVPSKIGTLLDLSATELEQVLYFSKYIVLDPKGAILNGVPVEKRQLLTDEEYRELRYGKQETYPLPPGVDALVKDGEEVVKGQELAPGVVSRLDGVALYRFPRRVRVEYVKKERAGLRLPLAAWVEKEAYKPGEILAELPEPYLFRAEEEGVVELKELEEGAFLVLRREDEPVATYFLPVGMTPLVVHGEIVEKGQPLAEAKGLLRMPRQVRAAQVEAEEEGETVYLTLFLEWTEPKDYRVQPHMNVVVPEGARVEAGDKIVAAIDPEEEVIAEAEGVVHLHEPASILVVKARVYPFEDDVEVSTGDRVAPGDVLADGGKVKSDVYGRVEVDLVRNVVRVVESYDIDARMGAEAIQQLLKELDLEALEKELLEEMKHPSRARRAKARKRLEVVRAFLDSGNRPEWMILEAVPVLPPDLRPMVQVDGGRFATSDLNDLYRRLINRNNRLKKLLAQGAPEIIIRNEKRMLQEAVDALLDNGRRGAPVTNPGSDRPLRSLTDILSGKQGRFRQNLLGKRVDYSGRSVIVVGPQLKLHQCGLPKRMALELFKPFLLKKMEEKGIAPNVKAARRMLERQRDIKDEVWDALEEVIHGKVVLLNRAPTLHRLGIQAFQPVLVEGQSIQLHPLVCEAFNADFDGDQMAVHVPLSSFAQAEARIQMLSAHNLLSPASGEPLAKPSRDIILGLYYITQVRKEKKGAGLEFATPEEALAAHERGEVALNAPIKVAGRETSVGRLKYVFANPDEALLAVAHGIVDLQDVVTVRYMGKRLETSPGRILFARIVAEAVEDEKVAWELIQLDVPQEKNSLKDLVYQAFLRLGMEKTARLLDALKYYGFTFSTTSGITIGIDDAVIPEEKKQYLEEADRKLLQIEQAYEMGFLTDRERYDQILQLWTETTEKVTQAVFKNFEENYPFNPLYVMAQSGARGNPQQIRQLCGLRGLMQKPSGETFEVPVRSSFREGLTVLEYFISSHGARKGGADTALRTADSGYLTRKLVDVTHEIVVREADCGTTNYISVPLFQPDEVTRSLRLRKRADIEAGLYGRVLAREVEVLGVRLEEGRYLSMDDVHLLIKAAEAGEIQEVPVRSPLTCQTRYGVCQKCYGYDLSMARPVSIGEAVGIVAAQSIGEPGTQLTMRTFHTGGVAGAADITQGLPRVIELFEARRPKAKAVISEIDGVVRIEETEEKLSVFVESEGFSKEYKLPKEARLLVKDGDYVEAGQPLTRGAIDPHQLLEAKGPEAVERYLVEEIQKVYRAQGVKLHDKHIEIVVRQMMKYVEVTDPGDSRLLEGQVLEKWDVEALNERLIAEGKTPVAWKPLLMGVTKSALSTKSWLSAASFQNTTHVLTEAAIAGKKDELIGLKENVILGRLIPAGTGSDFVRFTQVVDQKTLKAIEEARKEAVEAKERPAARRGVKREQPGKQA

Assay [1] addresses T1, Escherichia coli σ^70 RNAP holoenzyme (Escherichia coli, UniProt P0A8T7).
T1 construct: purchased Epicentre, Inc
Briefly: fluorescence-detected abortive initiation assay. The class given is biochemical. The settings on record: lacUV5-12 DNA fragment, 37° C. On the procedure: (§1) Following incubation of reaction mixtures for 5 min at 22° C., 1 μl 1.1 μM DNA fragment lacUV5-12 (Mukhopadhyay et al. (2001) Cell 106, 453-463) was added. Following further incubation of reaction mixtures for […] at 37° C., 0.5 μl 1 mg/ml heparin (Sigma, Inc.; omitted in experiments with T. thermophilus RNAP) and 0.5 μl of 2.75 mM (γ-AmNS)UTP (Molecular Probes, Inc.) were added, and reaction mixtures were transferred to sub-micro fluorometer cuvettes (Starna Cells, Inc.). Following further incubation of reaction mixtures for 2 min at 37° C., RNA synthesis was initiated by addition of 2 μl 11 mM ApA (Sigma, Inc.), and fluorescence emission intensity was monitored for 5 min at 37° C. [excitation wavelength=360 nm and emission wavelength=500 nm; excitation and emission slit widths=4 nm; QuantaMaster QM1 spectrofluorometer (PTI, Inc.)]. The quantity of UMP incorporated into RNA was determined from the quantity of (γ-AmNS) UTP consumed, which, in turn, was calculated as follows (Schlageck et al. 1979): (γ-AmNS)UTPconsumed=[(γ-AmNS)UTP0](Ft−F0)/(12.4×F0) where (γ-AmNS)UTP0 is the quantity of (γ-AmNS)UTP at time 0, F0 is the fluorescence emission intensity at time 0, and Ft is the fluorescence emission intensity at time t.

In assay [2] the target is T2, Thermus thermophilus σ^A RNAP holoenzyme (Thermus thermophilus, UniProt Q8RQE8).
T2 construct: made in house
Briefly: fluorescence-detected abortive initiation assay. It is filed as biochemical. The following applies: lacUV5-12 DNA fragment, 37° C. On the procedure:
as §1

pIC50: −log10 of the molar value. “And” between values parts separate entries of the source, which are not always exact repeats. Equal entries are not always repeated.

For orientation: pIC50 means the negative decadic logarithm of the IC50, by convention in mol/L. Low values mean a large IC50, high ones a small IC50.

On to `C[C@@H]1NC(=O)[C@H]([C@@H](C)O)NC(=O)CNC(=O)[C@H](Cc2c[nH]cn2)NC(=O)[C@H](Cc2c[nH]c3ccccc23)NC(=O)[C@H](CC(N)=O)NC(=O)CNC(=O)C[C@@H](C(=O)N[C@@H](Cc2c[nH]c3ccccc23)C(=O)N[C@@H](Cc2ccccc2)C(=O)N[C@@H](Cc2ccccc2)C(=O)N[C@@H](CC(N)=O)C(=O)N[C@@H](Cc2ccc(O)cc2)C(=O)N[C@@H](Cc2ccc(O)cc2)C(=O)N[C@@H](Cc2c[nH]c3ccccc23)C(=O)O)NC(=O)[C@@H]2CCCN2C1=O` [RES-701-1], for which the pIC50 was 4.00 to 5.70 and 4.52 in assay [1]; 4.00 to 5.70 and 4.70 in assay [2].
